Activity and Kb data for eight molecules are collected here from ChEMBL document CHEMBL5584250, “5-HT6 receptor neutral antagonists protect astrocytes: A lesson from 2-phenylpyrrole derivatives” (Eur J Med Chem, 2024).

Protein sequences, listed by entry. Tags and fused reporters are not part of them. Lines headed by an entry give the natural chain unless they say otherwise; changes in a name come on top.
UniProt P35462, whole entry: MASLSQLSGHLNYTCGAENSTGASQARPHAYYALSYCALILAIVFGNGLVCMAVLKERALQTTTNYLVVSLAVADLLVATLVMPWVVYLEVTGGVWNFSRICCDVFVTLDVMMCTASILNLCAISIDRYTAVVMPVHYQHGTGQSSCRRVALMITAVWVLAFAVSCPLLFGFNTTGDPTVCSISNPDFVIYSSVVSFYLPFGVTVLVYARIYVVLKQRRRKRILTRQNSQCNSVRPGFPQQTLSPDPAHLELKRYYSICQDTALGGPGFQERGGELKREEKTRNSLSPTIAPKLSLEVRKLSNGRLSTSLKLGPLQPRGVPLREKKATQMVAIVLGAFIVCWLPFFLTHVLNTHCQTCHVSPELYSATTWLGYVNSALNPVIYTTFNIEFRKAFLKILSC
UniProt P50406, whole entry: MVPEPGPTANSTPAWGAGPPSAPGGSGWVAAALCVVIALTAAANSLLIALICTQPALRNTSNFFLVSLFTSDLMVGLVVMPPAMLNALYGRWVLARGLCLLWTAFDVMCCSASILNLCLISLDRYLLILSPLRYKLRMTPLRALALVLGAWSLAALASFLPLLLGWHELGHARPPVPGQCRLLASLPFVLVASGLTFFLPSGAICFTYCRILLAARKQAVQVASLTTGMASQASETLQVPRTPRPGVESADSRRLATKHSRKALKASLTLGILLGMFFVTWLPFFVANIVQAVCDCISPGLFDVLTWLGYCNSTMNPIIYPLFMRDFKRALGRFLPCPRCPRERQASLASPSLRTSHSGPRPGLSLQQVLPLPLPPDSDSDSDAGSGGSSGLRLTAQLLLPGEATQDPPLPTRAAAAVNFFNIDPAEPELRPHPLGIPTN
UniProt Q9Y5N1: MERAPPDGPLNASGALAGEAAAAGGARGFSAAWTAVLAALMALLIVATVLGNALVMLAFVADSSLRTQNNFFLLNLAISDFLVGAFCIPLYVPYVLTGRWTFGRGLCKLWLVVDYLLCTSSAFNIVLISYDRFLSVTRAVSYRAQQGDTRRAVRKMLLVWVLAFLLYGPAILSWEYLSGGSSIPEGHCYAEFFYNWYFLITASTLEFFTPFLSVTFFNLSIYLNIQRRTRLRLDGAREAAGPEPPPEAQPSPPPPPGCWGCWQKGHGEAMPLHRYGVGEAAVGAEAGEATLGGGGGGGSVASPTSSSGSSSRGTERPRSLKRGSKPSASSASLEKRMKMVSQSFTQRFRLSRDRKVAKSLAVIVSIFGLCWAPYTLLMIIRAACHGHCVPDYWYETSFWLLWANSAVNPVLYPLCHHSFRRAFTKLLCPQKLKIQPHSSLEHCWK
UniProt Q99720, whole entry: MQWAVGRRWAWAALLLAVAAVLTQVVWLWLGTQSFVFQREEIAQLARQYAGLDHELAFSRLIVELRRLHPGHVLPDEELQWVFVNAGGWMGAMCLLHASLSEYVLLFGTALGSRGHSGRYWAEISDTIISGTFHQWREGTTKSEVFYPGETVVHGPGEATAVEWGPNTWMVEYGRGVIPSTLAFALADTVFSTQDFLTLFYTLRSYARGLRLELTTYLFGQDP

Molecules are shown by their SMILES. Calls of active or inactive are those of the source. The rule behind the calls is not given here.

Assay [1] concerns Astrocyte. The assay can be described thus: Cytoprotective activity against rotenone-induced toxicity in human astrocytes assessed as prevention of actin cytoskeleton damage at […] pretreated for 3 hrs followed by replacement with fresh media and rotenone addition and measured after 24 hrs by phalloidin/Hoechst 33342 staining based fluorescence microscopic analysis. Type of assay: functional, cell-based. The settings on record: dose 0.25 µM.

Assay [2] has as its system C8-D1A. In words: Cytoprotective activity against rotenone-induced toxicity in mouse C8D1A cells assessed as increase in cell viability at […] pretreated for 3 hrs followed by replacement with fresh media and rotenone addition and measured after 24 hrs by MTT assay. Type of assay: functional, cell-based. The settings on record: dose 0.25 µM. (In general: Tetrazolium dyes change colour on reduction, which living cells bring about.)

For assay [3], the system named is C8-D1A. In words: Cytoprotective activity against rotenone-induced toxicity in mouse C8D1A cells assessed as increase in cell membrane integrity at […] pretreated for 3 hrs followed by replacement with fresh media and rotenone addition and measured after 24 hrs by cytotox-glo assay. The format is functional, cell-based. The settings on record: dose 0.25 µM.
Assay [4] has as its target D(3) dopamine receptor (Homo sapiens) (UniProt P35462). The assay can be described thus: Binding affinity to D3 receptor (unknown origin) at 1 uM relative to control.
The target in assay [5] is T1, 5-hydroxytryptamine receptor 6 (Homo sapiens, UniProt P50406). The assay can be described thus: Neutral antagonist activity at human 5HT-6 receptor expressed in human NG108-15 cells coexpressing CAMYEL probe assessed as constitutive activity of receptor at Gs signaling by BRET analysis. The format is functional, cell-based. The settings on record: filed as antagonist.

Assay [6] addresses T1, 5-hydroxytryptamine receptor 6. The assay can be described thus: Inverse agonist activity at YFP-tagged 5-HT6R (unknown origin) transfected in human NG108-15 cells assessed as inhibition of 5-HT6R-operated cdk5 signaling by measuring reduction in neurite length at 10 nM incubated for 24 hrs by epifluorescence based microscopic analysis. The format is functional, cell-based. The settings on record: filed as inverse agonist.

Another assay relates to SH-SY5Y. The assay can be described thus: Cytoprotective activity against 6-OHDA induced toxicity in human SH-SY5Y cells assessed as increase in cell viability at […] pretreated for 3 hrs followed by replacement with fresh media and 6-OHDA addition and measured after 24 hrs by MTT assay. Type of assay: functional, cell-based. The settings on record: dose 0.25 µM.
The next assay deals with PC-12. The assay can be described thus: Cytoprotective activity against amyloid beta (25 to 35 residues)-induced toxicity in rat PC-12 cells assessed as increase in cell viability at […] pretreated for 3 hrs followed by replacement with fresh media and amyloid beta (25 to 35 residues) addition and measured after 24 hrs by MTT assay. The settings on record: dose 0.25 µM. Type of assay: functional, cell-based.

The target in assay [7] is T1, 5-hydroxytryptamine receptor 6. The assay can be described thus: Antagonist activity at human 5-HT6 receptor expressed in recombinant human 1321N1 cells assessed as inhibition of 5-carboxamidotryptamine stimulated cAMP accumulation incubated for 30 mins by TR-FRET assay. The settings on record: filed as antagonist. The format is functional, cell-based. For orientation: cAMP levels reflect the balance of adenylyl cyclase and phosphodiesterase activity.

Assay [8] deals with Astrocyte. The assay can be described thus: Cytoprotective activity against rotenone-induced toxicity in human astrocytes assessed as increase in cell viability at […] pretreated for 3 hrs followed by replacement with fresh media and rotenone addition and measured after 24 hrs by MTT assay. The settings on record: dose 0.25 µM. The format is functional, cell-based.
Assay [9] deals with Astrocyte. The assay can be described thus: Cytoprotective activity against 6-OHDA-induced toxicity in human astrocytes assessed as increase in cell viability at […] pretreated for 3 hrs followed by replacement with fresh media and 6-OHDA addition and measured after 24 hrs by MTT assay. The format is functional, cell-based. The settings on record: dose 0.25 µM.
The target in assay [10] is Histamine H3 receptor (Homo sapiens) (UniProt Q9Y5N1). In words: Binding affinity to H3 receptor (unknown origin) at 1 uM relative to control.
The test system of assay [11] is Astrocyte. In words: Cytoprotective activity against rotenone-induced toxicity in human astrocytes assessed as increase in cell membrane integrity at […] pretreated for 3 hrs followed by replacement with fresh media and rotenone addition and measured after 24 hrs by cytotox-glo assay. The format is functional, cell-based. The settings on record: dose 0.25 µM.
In assay [12] the target is Sigma non-opioid intracellular receptor 1 (Homo sapiens) (UniProt Q99720). In words: Binding affinity to sigma1 receptor (unknown origin) at 1 uM relative to control.
Assay [13] concerns Astrocyte. In words: Cytoprotective activity against 6-OHDA-induced toxicity in human astrocytes assessed as prevention of actin cytoskeleton damage at […] pretreated for 3 hrs followed by replacement with fresh media and 6-OHDA addition and measured after 24 hrs by phalloidin/Hoechst 33342 staining based fluorescence microscopic analysis. The format is functional, cell-based. The settings on record: dose 0.25 µM.

The target of assay [14] is T1, 5-hydroxytryptamine receptor 6. In words: Inverse agonist activity at human 5HT-6 receptor expressed in human NG108-15 cells coexpressing CAMYEL probe assessed as reduction in constitutive activity of receptor at Gs signaling by measuring reduction in basal cAMP level by BRET analysis. The settings on record: filed as inverse agonist. Type of assay: functional, cell-based.

As a reminder, the Kb is the equilibrium dissociation constant of an antagonist, usually derived from a functional assay. As to `O=S(=O)(c1cccc(N2CCNCC2)c1)n1cccc1-c1cccc(F)c1`, the result (with Astrocyte [1]; with C8-D1A [2]; in the assay on C8-D1A [3]; in assay [5]; in assay [6]; with Astrocyte [8]) was Active. Moreover, the result with Astrocyte [9], with Astrocyte [11] and with Astrocyte [13] was Active. Moreover, the figures for the Activity in assay [4], in [10] and in [12] were 63.3%, 14.5% and 75.5%, respectively. In addition, the result in the assay on SH-SY5Y and with PC-12 was inactive. For the same molecule, the Kb in assay [7] was 4.7 nM.

For the molecule `O=S(=O)(c1cccc(NC2CCNCC2)c1)n1cccc1-c1ccccc1`, the result in assay [5] was Active. Further, the Kb in assay [7] is 16.2 nM.

`O=S(=O)(c1ccccc1)n1cccc1-c1cccc(N2CCNCC2)c1`: the result (in the assay on C8-D1A [2]; in the assay with C8-D1A [3]; in assay [5]; in the assay on Astrocyte [8]; in the assay on Astrocyte [9]; in the assay with Astrocyte [11]) was Active. The outcome in the assay on SH-SY5Y and in the assay with PC-12 was inactive. Further, the Kb in [7] turned out to be 72.3 nM.

In the case of `CN(C)CCn1cc(S(=O)(=O)c2cccc(F)c2)c2cccnc21`, the result with C8-D1A [2], in the assay on C8-D1A [3], with SH-SY5Y, in the assay with PC-12, in the assay on Astrocyte [8] and in the assay with Astrocyte [9] was inactive. Besides, in the assay on Astrocyte [11], the result was inactive.

With `O=S(=O)(c1cccc(Cl)c1)n1ccc2c(N[C@H]3CCNC3)nc3ccccc3c21`, the result in the assay on C8-D1A [2], in the assay on C8-D1A [3], in the assay with SH-SY5Y, in the assay with PC-12, in the assay on Astrocyte [8] and in the assay on Astrocyte [9] was Active. Besides, the outcome with Astrocyte [11] was Active.

For `O=S(=O)(c1ccccc1)c1cnc2c(N3CCNCC3)cccc2c1`, the outcome with C8-D1A [2], with C8-D1A [3], with SH-SY5Y, in the assay on PC-12, in the assay on Astrocyte [8] and in the assay with Astrocyte [9] was inactive. Moreover, the outcome in the assay on Astrocyte [11] was inactive.

On to `O=S(=O)(c1cccc(N2CCNCC2)c1)n1cccc1-c1ccccc1`, for which the result (in the assay on C8-D1A [2]; with C8-D1A [3]; in assay [5]; in assay [6]; with Astrocyte [8]; in the assay on Astrocyte [9]) was Active. Besides, in the assay with Astrocyte [11], the result was Active. The outcome in the assay with SH-SY5Y and in the assay on PC-12 was inactive. The Kb in assay [7] turned out to be 2.1 nM.

`O=C(NC1CCNCC1)c1ccn(S(=O)(=O)c2cccc(Cl)c2)c1-c1cccc(F)c1`: the outcome in the assay with C8-D1A [2], with C8-D1A [3], with SH-SY5Y, with PC-12, in the assay with Astrocyte [8] and in the assay on Astrocyte [9] was inactive. In the assay with Astrocyte [11], the outcome was inactive. In assay [14], the outcome was Active.
